Assays:
Aβ42 = Aβ42 (Homo sapiens, UniProt P05067); assay: Liposome experiment: Aβ42 aggregation/oligomerization (immunoblot)
APP/PS1 mice = assay: Novel object recognition test (NOR) in APP/PS1 mice; details: 18 month-age APP/PS1 mice, 0.3 mg/kg gavage, 8 months, 10 mice per group; same in water group
[1] = system: dissected Drosophila third instar larvae; assay: Toxicity of PAO on dissected Drosophila third instar larvae; details: Schneider's medium, 25° C. overnight
wild type flies = assay: Toxicity of PAO on living flies (fly food from embryonic stage)
C57BL/6 mice = assay: Toxicity of PAO oral gavage on mice

By UniProt entry, the sequences of proteins in these tests, tags left out. Where a name states a change or a piece, a line headed by the entry shows the natural chain unless it says otherwise.
UniProt P05067: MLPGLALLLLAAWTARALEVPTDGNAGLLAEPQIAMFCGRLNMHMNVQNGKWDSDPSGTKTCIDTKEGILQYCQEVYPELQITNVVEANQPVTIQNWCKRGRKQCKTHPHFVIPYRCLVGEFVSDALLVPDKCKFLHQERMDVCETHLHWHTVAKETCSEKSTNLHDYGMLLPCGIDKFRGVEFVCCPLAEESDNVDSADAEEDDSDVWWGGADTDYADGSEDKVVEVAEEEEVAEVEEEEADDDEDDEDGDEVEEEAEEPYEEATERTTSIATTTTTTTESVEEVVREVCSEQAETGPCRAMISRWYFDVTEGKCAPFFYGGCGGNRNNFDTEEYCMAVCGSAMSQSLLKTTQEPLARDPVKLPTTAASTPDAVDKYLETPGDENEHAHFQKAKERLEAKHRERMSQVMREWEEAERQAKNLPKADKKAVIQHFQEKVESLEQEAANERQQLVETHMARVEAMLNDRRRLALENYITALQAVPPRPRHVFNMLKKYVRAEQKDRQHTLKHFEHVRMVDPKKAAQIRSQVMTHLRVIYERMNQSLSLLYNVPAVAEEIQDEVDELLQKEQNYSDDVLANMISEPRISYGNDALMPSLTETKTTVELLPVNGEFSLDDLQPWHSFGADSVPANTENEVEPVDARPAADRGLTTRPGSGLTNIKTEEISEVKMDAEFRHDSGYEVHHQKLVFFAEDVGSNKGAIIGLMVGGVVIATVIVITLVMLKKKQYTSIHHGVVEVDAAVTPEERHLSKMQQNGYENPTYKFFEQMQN

Compound | Facilitation effect on Aβ42 aggregation in liposomes compared with PI and PIP2 (Aβ42) | Facilitation effect on oligomerization of Aβ42 at 80 jμM (Aβ42; 80 jμM versus 40 jμM) | Oligomerization of Aβ42 in liposome (Aβ42; different concentrations) | Deaths during prolonged administration (APP/PS1 mice) | Concentration at which salivary gland cells and CNS neurons turned white (damage) [1] [µM] | Concentration without damage to salivary gland cells and CNS neurons [1] [µM] | Concentration in fly food that neither changed the eclosion rate nor altered the climbing ability (wild type flies) [µM] | Survival after gavage at 2.0 mg/kg (C57BL/6 mice; once a day Monday through Friday, two consecutive weeks, five mice) | Survival after gavage at 4.5 mg/kg (C57BL/6 mice; once a day for five consecutive days, five mice) | Survival after gavage at 18, 10 and 6 mg/kg (C57BL/6 mice; two mice for each dose level)
phosphatidylinositol 4-phosphate | significantly stronger than PI and PIP2 | decreases as compared to a concentration of 40 jμM | facilitates the oligomerization of Aβ42 in liposome in a concentration dependent manner | – | – | – | – | – | – | –
O=[As]c1ccccc1 (stereo not shown) | – | – | – | two mice were dead in each group | ≥ 0.3 | ≤ 0.15 | ≤ 200 | all five mice survived | four mice out of five survived | All mice were found dead on the second day
